# Data from PubChem BioAssay AID2546 (National Center for Advancing Translational Sciences (NCATS), 2010).
# Only a part is listed here, and it is no random draw. Inconclusive results are not listed. Calls of active or inactive are those of the source. Calls come from the whole dose curve; as a rule, active = well fitted inhibition curve with a large enough effect; inconclusive = small, poorly fitted or top-dose-only effect, or effect the other way; inactive = flat fitted curve, though single readings scatter.
# Test: VP16 counterscreen qHTS for inhibitors of ROR gamma transcriptional activity;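 note: Gal4-VP16 expression switched on by copper sulfate through the metallothionein promoter; nearly all actives have a fitted effect of over 50% in size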
# Conditions: Drosophila S2 Gal4-VP16 UAS-luciferase, luminescence, 20 h
# Excerpt: NIH Molecular Libraries Probe Production Network [MLPCN]
# NIH Chemical Genomics Center [NCGC]
# Assay Provider: Dan Littman, New York University
# The retinoic acid-related orphan receptor (ROR) gamma is a transcription factor that has a central role in the differentiation of Th17 cells, a subset of T helper cells that secrete the inflammatory cytokines IL-17, IL-17F, and IL-22. Th17 cells have been implicated in graft versus host disease, autoimmune disease and asthma. ROR gamma is induced in naive T helper cells in the presence of TGF-beta combined with IL-6, IL-21, or IL-23, and thereafter directs the expression of the Th17 lineage cytokines. […] Small molecule inhibitors that inhibit components common to the RORgt and VP16 assays, such as the Gal4 DNA binding domain or the UAS luciferase reporter, will be active in both assays and thus scored as nonspecific.
# For screening, 600 cells in 4 uL/well were dispensed into white solid 1536-well plates (Grenier) using a solenoid-based dispenser. […] After addition of 1.5 uL Photinus luciferase detection reagent, the plates were incubated 10 min at ambient temperature and then read by a ViewLux (Perkin Elmer) to detect luminescence.
# Potency is the fitted concentration of half-maximal effect.
row,Structure (SMILES),Potency
1,CC[n+]1c(/C=C/N(C)c2ccccc2)oc2ccccc21,active: 11.2 µM
2,CC[n+]1c(/C=C/N(C)c2ccccc2)oc2ccc(Cl)cc21,active: 4.47 µM
